# In PubChem BioAssay AID488927 (Johns Hopkins Ion Channel Center, 2010):
# The list shows a part of the results, in another mix than the full data. Some results for these compounds are left out of this collection, so the calls shown say nothing about other tests. Active and inactive are the calls of the source.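 Rule for the calls: active = membrane potential signal moved up or down beyond 5 SD of buffer control wells, in both duplicate plates, actives on both sides; inactive = the rest.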
# Test system: Transient receptor potential cation channel subfamily C member 4 (mouse)
# Assay: TRPC4 modulation by TRPC6 hit compounds, confirmation, selectivity assay for TRPC6 modulator project, cell-based, HEK293 TRPC4/mu-opioid, membrane potential dye, mouse (AID 488927)
# Details: membrane potential fluorescence, at 10 µM
row,SMILES,percent of control
1,CN1[C@@H]2CC[C@H]1CC(OC(=O)C(O)(c1ccccc1)c1ccccc1)C2 (some centres not stated),active: 9%
2,CCN(CC)CC(C)C(C)OC(=O)C(O)(c1ccccc1)c1ccccc1 (configuration not stated),active: 23%
